pKi: −log10 of the molar value.
These compounds were tested against Mu opioid receptor (Homo sapiens, UniProt P35372) (assay: Affinity at the μ receptor ([35S]GTPγS binding, membranes)). Settings: read-out: Mu Receptor Affinity calc Ki, Table 3.
Description: Affinity at the μ receptor for compounds was obtained according to the following assay:
Mu opioid receptor membrane solution was prepared by sequentially adding final concentrations of 0.075 μg/μl of the desired membrane protein, 10 μg/ml saponin, 3 μM GDP and 0.20 nM [^35S]GTPγS to binding buffer (100 mM NaCl, 10 mM MgCl2, 20 mM HEPES, pH 7.4) on ice. The prepared membrane solution (190 μl/well) was transferred to 96-shallow well polypropylene plates containing 10 μl of 20× concentrated stock solutions of agonist prepared in DMSO. Plates were incubated for 30 min at room temperature with shaking. Reactions were terminated by rapid filtration onto 96-well Unifilter GF/B filter plates (Packard) using a 96-well tissue harvester (Brandel) and followed by three filtration washes with 200 μl ice-cold binding buffer (10 mM NaH2PO4, 10 mM Na2HPO4, pH 7.4). Filter plates were subsequently dried at 50° C. for 2-3 hours. Fifty μl/well scintillation cocktail (MicroScint20, Packard) was added and plates were counted in a Packard Top-Count for 1 min/well.
Data were analyzed using the curve fitting functions in GraphPad PRISM™, v.

The chains behind the UniProt entries cited, without tags or fusion partners.
UniProt P35372, whole entry: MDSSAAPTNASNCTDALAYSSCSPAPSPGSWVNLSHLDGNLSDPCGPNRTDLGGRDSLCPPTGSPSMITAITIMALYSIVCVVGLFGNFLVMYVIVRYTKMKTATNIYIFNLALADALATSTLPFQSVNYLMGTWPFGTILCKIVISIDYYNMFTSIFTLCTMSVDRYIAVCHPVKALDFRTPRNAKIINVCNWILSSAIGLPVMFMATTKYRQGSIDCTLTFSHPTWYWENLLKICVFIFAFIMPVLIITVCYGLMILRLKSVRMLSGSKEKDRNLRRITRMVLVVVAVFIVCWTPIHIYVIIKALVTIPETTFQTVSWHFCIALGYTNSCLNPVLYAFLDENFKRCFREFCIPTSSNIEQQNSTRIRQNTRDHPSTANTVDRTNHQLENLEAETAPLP
UniProt P41146, whole entry: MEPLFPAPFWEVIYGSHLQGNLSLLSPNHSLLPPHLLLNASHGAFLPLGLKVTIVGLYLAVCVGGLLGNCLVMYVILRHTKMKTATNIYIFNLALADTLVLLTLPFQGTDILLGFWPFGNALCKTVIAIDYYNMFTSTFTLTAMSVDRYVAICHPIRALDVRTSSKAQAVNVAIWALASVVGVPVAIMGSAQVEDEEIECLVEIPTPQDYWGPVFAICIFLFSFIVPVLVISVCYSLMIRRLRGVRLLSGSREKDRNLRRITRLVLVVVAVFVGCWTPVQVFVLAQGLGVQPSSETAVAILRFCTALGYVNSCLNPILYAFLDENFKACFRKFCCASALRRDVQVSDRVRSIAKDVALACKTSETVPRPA

Structure (SMILES) | pKi
CC(C)CCC(C)N1CCC(N2C(=O)CCc3ccccc32)CC1 (centres unmarked) | 6.81

These compounds were tested against human opioid receptor-like receptor (ORL-1) (Homo sapiens, UniProt P41146) (assay: Nociceptin affinity at the ORL1 receptor ([35S]GTPgS binding, membranes of recombinant HEK-293 cells)). Settings: read-out: Nociceptin Affinity calc Ki; Table 1; ORL-1 membranes from recombinant HEK-293 cells; benzothiadiazole/benzothiadiazine series.
Description: Nociceptin affinity at the ORL1 receptor for preferred compounds was obtained using the following assay:
Membranes from recombinant HEK-293 cells expressing the human opioid receptor-like receptor (ORL-1) (Receptor Biology) were prepared by lysing cells in ice-cold hypotonic buffer (2.5 mM MgCl2, 50 mM HEPES, pH 7.4) (10 ml/10 cm dish) followed by homogenization with a tissue grinder/teflon pestle. Membranes were collected by centrifugation at 30,000×g for 15 min at 4° C. and pellets resuspended in hypotonic buffer to a final concentration of 1-3 mg/ml. Protein concentrations were determined using the BioRad protein assay reagent with bovine serum albumen as standard. Aliquots of the ORL-1 receptor membranes were stored at −80° C.
(§1) Functional SGTPgS binding assays were conducted as follows. ORL-1 membrane solution was prepared by sequentially adding final concentrations of 0.066 mg/ml ORL-1 membrane protein, […], […] and 0.20 nM [^35S]GTPgS to binding buffer (100 mM NaCl, 10 mM MgCl2, 20 mM HEPES, pH 7.4) on ice. The prepared membrane solution ([…]) was transferred to 96-shallow well polypropylene plates containing […] of 20× concentrated stock solutions of agonist prepared in DMSO. Plates were incubated for 30 min at room temperature with shaking. Reactions were terminated by rapid filtration onto 96-well Unifilter GF/B filter plates (Packard) using a 96-well tissue harvester (Brandel) and followed by three filtration washes with 200 ml ice-cold binding buffer (10 mM NaH2PO4, 10 mM Na2HPO4, pH 7.4). Filter plates were subsequently dried at 50° C. for 2-3 hours. Fifty ml/well scintillation cocktail (BetaScint; Wallac) was added and plates were counted in a Packard Top-Count for 1 min/well.
as §1, with “20 nM” for “20 mM”
Data was analyzed using the curve fitting functions in GraphPad PRISMÔ, v.

Structure (SMILES) | pKi
O=S1(=O)Nc2ccccc2N1C1CCN(C2CCCCCCC2)CC1 | 5.64
O=S1(=O)Nc2ccccc2N1C1CCN(Cc2ccc(OCc3ccccc3)cc2)CC1 | 5.15
CC(C)CCC(C)N1CCC(N2c3ccccc3NS2(=O)=O)CC1 (centres unmarked) | 5.44
O=S1(=O)Nc2ccccc2N1C1CCN(CCC(c2ccccc2)c2ccccc2)CC1 | 5.35
O=S1(=O)Nc2ccccc2N1C1CCN(C2CCc3ccccc3C2)CC1 (centres unmarked) | 5.46
O=S1(=O)Nc2ccccc2N1C1CCN(C2Cc3ccccc3C2)CC1 | 5.25
CCCC1CCC(N2CCC(N3c4ccccc4NS3(=O)=O)CC2)CC1 (centres unmarked) | 5.29
CC(C)C1CCC(N2CCC(N3c4ccccc4CN(CC#N)S3(=O)=O)CC2)CC1 (centres unmarked) | 7.48

Same assay, conditions: read-out: Nociceptin Affinity calc Ki; Table 2; ORL-1 membranes from recombinant HEK-293 cells; quinolin-2-one series

Structure (SMILES) | pKi
CC(C)C1CCC(N2CCC(N3C(=O)CCc4ccccc43)CC2)CC1 (centres unmarked) | 7.10
CC(C)CCC(C)N1CCC(N2C(=O)CCc3ccccc32)CC1 (centres unmarked) | 6.30
